## scFv variants of Ab-14 (light chain) against a SARS-CoV-2 spike peptide

Values reported by Li et al. 2023, doi:10.1038/s41467-023-39022-2 (FLAb copy).

All variants were tested on one target, the spike HR2 peptide PDVDLGDISGINAS (SARS-CoV-2).

Each scFv is VH, three GGGGS repeats, VL, as in the parent Ab-14, and differs from it in the CDRs of the light chain only.
VH: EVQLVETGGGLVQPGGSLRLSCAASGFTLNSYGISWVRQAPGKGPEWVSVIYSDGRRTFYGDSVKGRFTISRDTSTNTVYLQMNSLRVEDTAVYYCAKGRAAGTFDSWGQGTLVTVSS
VL: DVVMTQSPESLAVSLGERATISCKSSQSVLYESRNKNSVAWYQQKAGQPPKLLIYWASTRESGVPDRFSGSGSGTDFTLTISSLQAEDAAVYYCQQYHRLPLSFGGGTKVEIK

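These sequences belong to a second round, designed from the earlier measurements on random variants of the parent. Group labels follow the data file (Ctrl: baseline library sampled from a position-specific scoring matrix, with some repeated check sequences; Rand: our label for a block that the file lists under HC and that is probably the random mutants of the ten best first-round binders; GP: Gaussian process model; HC: hill climbing; Gen: genetic algorithm; Gibbs: Gibbs sampling; a sequence that several methods proposed may carry one label only). The assay is AlphaSeq: two haploid yeast populations carry antibody and antigen on their surface. Binding brings cells together so that they mate, and sequencing counts the barcode pairs among the diploids. Read counts were normalised to the haploid input and turned into Kd by a linear fit to BCL2-family pairs of known affinity, for each replicate. Each pool was mated in six replicate cultures.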

Positions count from residue 1 of the parent VL; S25L puts L in place of S. Variants here have at most six changes. Kd is apparent (estimated from mating counts) and averaged on the log scale over replicates with a signal. Smaller is tighter. A pair that was not seen in any replicate is written "nd"; this usually means weak binding, but a binder can also be missed. The list is sorted by this average, lowest first, undetected variants last. Background: pairings of all light chain designs with three empty control strains gave a value in 4% of cases (median 430 nM, 5th percentile 38 nM). Values in that range, when seen in few replicates, are hard to tell from nonspecific mating. In the paper, a design with two or fewer of six values counts as a poor binder. A sequence measured in both rounds can read differently, since the two assays cover different ranges. Of ten entries with the parent sequence, four were seen in most replicates (averages 2.2 nM to 240 nM), three in one and three in none, so single entries are noisy.

With S25L/S26E/V29Q/S38N/W56N [GP_Gen] the result was 280 pM (6 of 6 replicates). The variant S25L/S26P/S28G/W56G [GP_HC] gave 340 pM (6 of 6 replicates). The variant S25I/S26P/S28G/W56G/T59V [GP_HC] gave 420 pM (6 of 6 replicates). For S25L/S26V/Q27W/V29E/W56G/T59Q [GP_Gibbs], the assay gave 460 pM (6 of 6 replicates). The variant K24H/S25L/W56N/E61M [GP_Gen] gave 470 pM (6 of 6 replicates). With S25L/V29H/L30D/W56N [GP_Gen] the result was 530 pM (6 of 6 replicates). For S25L/S28L/V29M/W56N/E61G [GP_Gibbs], the assay gave 610 pM (6 of 6 replicates). For V29W/W56N/T59Q/Q96D [GP_Gen], the assay gave 660 pM (6 of 6 replicates). The variant S26P/L30D/W56E [GP_Gen] showed 800 pM (6 of 6 replicates).

The variant S25I/W56D/E61L [GP_Gen] gave 850 pM (6 of 6 replicates). With S25V/N35E/W56N [GP_HC] the result was 920 pM (6 of 6 replicates). With S25L/V29K/W56N/E61L [GP_Gen] the result was 940 pM (6 of 6 replicates). The variant S25L/L30K/Y31M/E32M/W56D [GP_HC] gave 1.1 nM (6 of 6 replicates). The variant S25V/S26Q/V29H/W56N [GP_Gen] showed 1.1 nM (6 of 6 replicates). With S25V/S26Q/W56H [GP_Gen] the result was 1.2 nM (6 of 6 replicates). With S25F/N35T/S38G/W56N/T59Q [GP_HC] the result was 1.2 nM (6 of 6 replicates). With S25V/V29Y/S33Q/W56N [GP_Gen] the result was 1.5 nM (6 of 6 replicates). With S25H/Q27G/V29Y/W56E [GP_HC] the result was 1.5 nM (6 of 6 replicates).

The variant S25G/V29Q/R34S/W56G [Ctrl] showed 1.5 nM (5 of 6 replicates). The variant S25V/V29K/N35Q/W56H/T59Q/S62L [GP_Gibbs] showed 1.8 nM (6 of 6 replicates). With S25L/K36W/W56N/Q96D [GP_Gen] the result was 1.8 nM (6 of 6 replicates). The variant S25Q/Q27I/V29D/Y31M/W56D [GP_HC] showed 2.1 nM (6 of 6 replicates). The variant S25C/W56D/E61S [GP_HC] showed 3.0 nM (6 of 6 replicates). With K24A/S25I/L30E/N35D/W56N/S62Q [GP_Gibbs] the result was 4.4 nM (6 of 6 replicates). With S25L/S26P/S28Q/V29T/S62E [GP_HC] the result was 6.4 nM (6 of 6 replicates). For Q27F/Y31F/W56N/S103R [GP_HC], the assay gave 17 nM (6 of 6 replicates). The variant Y31D/E32H [Ctrl] showed 26 nM (6 of 6 replicates).

The variant S25L/N35V/W56E/S58V/T59Q [GP_Gibbs] showed 27 nM (1 of 6 replicates). With Y31D/S33D [Ctrl] the result was 50 nM (6 of 6 replicates). With S62D [Ctrl] the result was 51 nM (2 of 6 replicates). With Q27L/E61V [Ctrl] the result was 65 nM (6 of 6 replicates). With K24H/Q27P/W56N/Y97V [Rand] the result was 120 nM (1 of 6 replicates). The variant K24I/Q27R/S33K [Ctrl] showed nd (0 of 6 replicates). The variant Q95E/H98V [Ctrl] showed nd (0 of 6 replicates). With L30R/A57D/T59N [Ctrl] the result was nd (0 of 6 replicates). The variant R34M/N35L/Q96S/H98A/P101Q [Ctrl] showed nd (0 of 6 replicates).

With L30F [Ctrl] the result was nd (0 of 6 replicates). The variant Q27G/K36L/S38D/E61H [Ctrl] showed nd (0 of 6 replicates). The variant S25V/N35L/W56N/Y97M [GP_HC] showed nd (0 of 6 replicates).